# Measurements reported in patent publication US11312722B2, “Hsp90 inhibitors and uses thereof” (TRUSTEES OF BOSTON UNIVERSITY, priority 2019, dated 2022).
# Molecular target: Hsp90 (C. albicans whole cell lysate) (Candida albicans (strain SC5314 / ATCC MYA-2876) (Yeast), UniProt P46598)
# Test: biochemical
# Format: binding
# Conditions: not given
row,SMILES,pEC50
1,"COc1ccc(Cn2nccc2Nc2cc(O)cc(O)c2C(=O)N2Cc3ccccc3C2)cc1 [Compound 40, 4-(2,3-Dihydro-1H-isoindole-2-carbonyl)-5-((1-((4-methoxyphenyl)methyl)-1H-pyrazol-5-yl)amino)benzene-1,3-diol]",7.52
2,"Cc1cc(Nc2cc(O)cc(O)c2C(=O)N2Cc3ccccc3C2)n(Cc2ccccc2Cl)n1 [Compound 89, 5-((1-((2-Chlorophenyl)methyl)-3-methyl-1H-pyrazol-5-yl)amino)-4-(2,3-dihydro-1H-isoindole-2-carbonyl)benzene-1,3-diol]",7.15
3,"Cn1nc(-c2ccccc2)cc1Nc1cc(O)cc(O)c1C(=O)N1Cc2ccccc2C1 [Compound 91, 4-(2,3-Dihydro-1H-isoindole-2-carbonyl)-5-((1-methyl-3-phenyl-1H-pyrazol-5-yl)amino]benzene-1,3-diol]",6.20
4,"Cn1nc(-c2ccccc2)cc1Nc1cc(O)cc(O)c1C(=O)N1Cc2cccnc2C1 [Compound 92, 5-((1-Methyl-3-phenyl-1H-pyrazol-5-yl)amino)-4-(5H,6H,7H-pyrrolo[3,4-b]pyridine-6-carbonyl)benzene-1,3-diol]",5.87
5,"CC(C)(C)n1nc(-c2ccccc2)cc1Nc1cc(O)cc(O)c1C(=O)N1Cc2cccnc2C1 [Compound 94, 5-((1-tert-Butyl-3-phenyl-1H-pyrazol-5-yl)amino)-4-(5H,6H,7H-pyrrolo[3,4-b]pyridine-6-carbonyl)benzene-1,3-diol]",5.79
6,"CC(C)Cn1nc(-c2ccccc2)cc1Nc1cc(O)cc(O)c1C(=O)N1Cc2cccnc2C1 [Compound 98, 5-((1-(2-Methylpropyl)-3-phenyl-1H-pyrazol-5-yl)amino)-4-(5H,6H,7H-pyrrolo[3,4-b]pyridine-6-carbonyl)benzene-1,3-diol]",6.43

# Same assay, conditions: FP competition, whole cell lysate, duplicate, screening experiment; read-out: C. albicans EC50
row,SMILES,pEC50
1,"COc1ccc(Cn2ncc(Cc3ccccc3)c2Nc2cc(O)cc(O)c2C(=O)N2Cc3ccccc3C2)cc1 [Compound 44, 5-((4-Benzyl-1-((4-methoxyphenyl)methyl)-1H-pyrazol-5-yl)amino)-4-(2,3-dihydro-1H-isoindole-2-carbonyl)benzene-1,3-diol]",6.33
2,"CC(C)(C)n1nc(-c2ccccc2)cc1Nc1cc(O)cc(O)c1C(=O)N1Cc2cccnc2C1 [Compound 94, 5-((1-tert-Butyl-3-phenyl-1H-pyrazol-5-yl)amino)-4-(5H,6H,7H-pyrrolo[3,4-b]pyridine-6-carbonyl)benzene-1,3-diol]",6.42
3,"CC(C)Cn1nc(-c2ccccc2)cc1Nc1cc(O)cc(O)c1C(=O)N1Cc2cccnc2C1 [Compound 98, 5-((1-(2-Methylpropyl)-3-phenyl-1H-pyrazol-5-yl)amino)-4-(5H,6H,7H-pyrrolo[3,4-b]pyridine-6-carbonyl)benzene-1,3-diol]",7.00

# Now from value to molecule:
row,pEC50,SMILES
1,6.83,"COc1ccc(Cn2ncc(C(C)C)c2Nc2cc(O)cc(O)c2C(=O)N2Cc3ccccc3C2)cc1 [Compound 42, 4-(2,3-Dihydro-1H-isoindole-2-carbonyl)-5-((1-((4-methoxyphenyl)methyl)-4-(propan-2-yl)-1H-pyrazol-5-yl)amino)benzene-1,3-diol]"
2,6.21,"COc1ccc(Cn2ncc(-c3ccccc3)c2Nc2cc(O)cc(O)c2C(=O)N2Cc3ccccc3C2)cc1 [Compound 43, 4-(2,3-Dihydro-1H-isoindole-2-carbonyl)-5-((1-((4-methoxyphenyl)methyl)-4-phenyl-1H-pyrazol-5-yl)amino)benzene-1,3-diol]"
3,6.09,"COc1ccc(Cn2nc(C(C)(C)C)cc2Nc2cc(O)cc(O)c2C(=O)N2Cc3ccccc3C2)cc1 [Compound 49, (2-((3-(tert-Butyl)-1-(4-methoxybenzyl)-1H-pyrazol-5-yl)amino)-4,6-dihydroxyphenyl)(isoindolin-2-yl)methanone]"
4,6.20,"Cn1nccc1Nc1cc(O)cc(O)c1C(=O)N1Cc2cccnc2C1 [Compound 57, 5-((1-Methyl-1H-pyrazol-5-yl)amino)-4-(5H,6H,7H-pyrrolo[3,4-b]pyridine-6-carbonyl)benzene-1,3-diol]"
5,7.12,"CC(C)n1nccc1Nc1cc(O)cc(O)c1C(=O)N1Cc2ccccc2C1 [Compound 59, 4-(2,3-Dihydro-1H-isoindole-2-carbonyl)-5-((1-(propan-2-yl)-1H-pyrazol-5-yl)amino)benzene-1,3-diol]"
6,6.84,"O=C(c1c(O)cc(O)cc1Nc1ccnn1Cc1cccnc1)N1Cc2cccnc2C1 [Compound 78, 5-((1-((Pyridin-3-yl)methyl)-1H-pyrazol-5-yl)amino)-4-(5H,6H,7H-pyrrolo[3,4-b]pyridine-6-carbonyl)benzene-1,3-diol]"
7,7.10,"O=C(c1c(O)cc(O)cc1Nc1ccnn1Cc1ccco1)N1Cc2cccnc2C1 [Compound 81, 5-((1-((Furan-2-yl)methyl)-1H-pyrazol-5-yl)amino)-4-(5H,6H,7H-pyrrolo[3,4-b]pyridine-6-carbonyl)benzene-1,3-diol]"
8,6.92,"Cc1ccc(Cn2nc(C)cc2Nc2cc(O)cc(O)c2C(=O)N2Cc3ccccc3C2)cc1 [Compound 88, 4-(2,3-Dihydro-1H-isoindole-2-carbonyl)-5-((3-methyl-1-((4-methylphenyl)methyl)-1H-pyrazol-5-yl)amino)benzene-1,3-diol]"
9,6.74,"CC(C)(C)n1nc(-c2ccccc2)cc1Nc1cc(O)cc(O)c1C(=O)N1Cc2cn[nH]c2C1 [Compound 95, 5-((1-tert-Butyl-3-phenyl-1H-pyrazol-5-yl)amino)-4-(1H,4H,5H,6H-pyrrolo[3,4-c]pyrazole-5-carbonyl)benzene-1,3-diol]"
10,7.23,"O=C(c1c(O)cc(O)cc1Nc1cc(-c2ccccc2)nn1C1CCCCC1)N1Cc2cccnc2C1 [Compound 96, 5-((1-Cyclohexyl-3-phenyl-1H-pyrazol-5-yl)amino)-4-(5H,6H,7H-pyrrolo[3,4-b]pyridine-6-carbonyl)benzene-1,3-diol]"
11,7.47,"O=C(c1c(O)cc(O)cc1Nc1cc(-c2ccccc2)nn1C1CCCCC1)N1Cc2cn[nH]c2C1 [Compound 97, 5-((1-Cyclohexyl-3-phenyl-1H-pyrazol-5-yl)amino)-4-(1H,4H,5H,6H-pyrrolo[3,4-c]pyrazole-5-carbonyl)benzene-1,3-diol]"

# Same assay, conditions: read-out: C. alb EC50
row,SMILES,pEC50
1,"Cn1nccc1Nc1cc(O)cc(O)c1C(=O)N1Cc2cn[nH]c2C1 [Compound 58, 5-((1-Methyl-1H-pyrazol-5-yl)amino)-4-(1H,4H,5H,6H-pyrrolo[3,4-c]pyrazole-5-carbonyl)benzene-1,3-diol]",6.42
2,"Cn1nc(-c2ccccc2)cc1Nc1cc(O)cc(O)c1C(=O)N1Cc2cccnc2C1 [Compound 92, 5-((1-Methyl-3-phenyl-1H-pyrazol-5-yl)amino)-4-(5H,6H,7H-pyrrolo[3,4-b]pyridine-6-carbonyl)benzene-1,3-diol]",6.40

# Molecular target: C. albicans Hsp90 NBD (Candida albicans (strain SC5314 / ATCC MYA-2876) (Yeast), UniProt P46598)
# Test: FP assay with purified C. albicans Hsp90 NBD (Ki)
# Format: binding
# Conditions: not given
row,SMILES,pKi
1,"Cn1nc(-c2ccccc2)cc1Nc1cc(O)cc(O)c1C(=O)N1Cc2ccccc2C1 [Compound 91, 4-(2,3-Dihydro-1H-isoindole-2-carbonyl)-5-((1-methyl-3-phenyl-1H-pyrazol-5-yl)amino]benzene-1,3-diol]",7.89

# Test system: not listed separately
# Test: in vitro
# Conditions: both, CD-1, mouse, microsomes
row,SMILES,half-life at 1 μM [min]
1,"COc1cccc(-c2cc(Nc3cc(O)cc(O)c3C(=O)N3Cc4cn[nH]c4C3)n(C)n2)c1 [Compound 114, 5-((3-(3-Methoxyphenyl)-1-methyl-1H-pyrazol-5-yl)amino)-4-(1H,4H,5H,6H-pyrrolo[3,4-c]pyrazole-5-carbonyl)benzene-1,3-diol]",17.2
2,"Cn1nc(-c2ccc(OC(F)(F)F)cc2)cc1Nc1cc(O)cc(O)c1C(=O)N1Cc2cccnc2C1 [Compound 131, 5-((1-Methyl-3-(4-(trifluoromethoxy)phenyl)-1H-pyrazol-5-yl)amino)-4-(5H,6H,7H-pyrrolo[3,4-b]pyridine-6-carbonyl)benzene-1,3-diol]",14.1
3,"Cn1nc(-c2ccc(OC(F)(F)F)cc2)cc1Nc1cc(O)cc(O)c1C(=O)N1Cc2cn[nH]c2C1 [Compound 132, 5-((1-Methyl-3-(4-(trifluoromethoxy)phenyl)-1H-pyrazol-5-yl)amino)-4-(1H,4H,5H,6H-pyrrolo[3,4-c]pyrazole-5-carbonyl)benzene-1,3-diol]",31

# pEC50, pKi: −log10 of the molar value.
